Results taken from patent publication US7741479B2, “Urea inhibitors of MAP kinases” (Locus Pharmaceuticals, Inc., priority 2004, dated 2010).

Chains of the proteins cited; added tags and fusions are not shown.
UniProt Q16539, whole entry: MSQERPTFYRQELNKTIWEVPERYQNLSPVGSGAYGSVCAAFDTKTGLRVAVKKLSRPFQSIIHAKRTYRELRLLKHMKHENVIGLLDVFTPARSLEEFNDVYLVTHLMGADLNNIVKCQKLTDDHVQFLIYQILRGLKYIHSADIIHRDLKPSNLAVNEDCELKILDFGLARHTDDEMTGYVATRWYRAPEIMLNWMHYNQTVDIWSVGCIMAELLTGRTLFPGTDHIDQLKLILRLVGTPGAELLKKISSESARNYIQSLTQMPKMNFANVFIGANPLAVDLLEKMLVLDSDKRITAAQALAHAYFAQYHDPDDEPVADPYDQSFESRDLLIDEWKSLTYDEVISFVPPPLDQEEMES

Target: T1, p38 (Homo sapiens, UniProt Q16539)
T1 construct: made in house
Assay: Protein Kinase Assay (33P incorporation from γ-[33P]ATP into GST-ATF-2 substrate)
Type: biochemical
Conditions: compound at 10 μM
Method: Human non-activated p38 kinase (MW=43 kDa) was purified according to the protocol described herein. Chemicals were purchased from Calbiochem. Fluorescence characterizations were conducted using a Cary Eclipse (Varian Analytical Instruments, Walnut Creek, Calif.). Research-grade CM5 sensor chips and coupling reagents (N-ethyl-N′-dimethylaminopropylcarbodiimide (EDC) N-hydroxysuccinimide (NHS), and 1 M ethanolamine HCl, pH 8.5) were purchased from Biacore AB (Uppsala, Sweden). The biosensor analyses were conducted using a Biacore 3000 SPR instrument. The kinetic analyses were carried on a Molecular Devices spectrophotometer (Molecular Devices Corporation, CA, USA).
Protein Kinase Assay. The protein kinase activity of p38 was determined by measuring the incorporation of ^33P from γ-[^33P]ATP into the GST-ATF-2 substrate, amino acids 19-96 (Upstate, NY USA). […] Compounds were preincubated with 10 nM p38 for 20 min at 30° C.; the reactions were initiated by the addition of GST-ATF2 and ATP and incubated for 70 min at 30° C. before being stopped by the addition of 10 μL of 600 mM phosphoric acid. The phosphorylated substrate was captured on phosphocellulose 96-well plate (Millipore MAPHNOB 10), washed with 100 mM phosphoric acid, and counted in a BeckmenCoulter LS6500 liquid scintillation counter.

CC(C)(C)c1cc(C(=O)N2CCNC(=O)CC2)c(NC(=O)Nc2cccc3ccccc23)s1 [Example 36, 1-[5-tert-butyl-3-(5-oxo[1,4]diazepane-1-carbonyl)thiophen-2-yl]-3-naphthalen-1-yl-urea]
inhibition at 10 µM: 76 to 100%
